This data set in a line: Crystal form stability study (influencing-factor experiments). It counts as physicochemical.

Structures can show the parent of a compound that is named as a salt.

In the case of `CCc1cc2ncc(CN3CCN4c5ccc(C(=O)NC)nc5COC[C@H]4C3)cc2[nH]c1=O` [Crystal form I of succinate, (R)-3-((7-ethyl-6-oxo-5,6-dihydro-1,5-naphthyridin-3-yl)methyl)-N-methyl-1,2,3,4,4a,5-hexahydro-7H-pyrazino[2,1-c]pyrido[3,2-e][1,4]oxazepine-9-carboxamide], the Purity % is, setting by setting: (40° C., 7 days) 99.5%; (40° C., 14 days) 99.4%; (Initial, 0 days) 99.5%.

Consider `CCc1cc2ncc(CN3CCN4c5ccc(C(=O)NC)nc5COC[C@H]4C3)cc2[nH]c1=O` [Crystal form a of hydrochloride, (R)-3-((7-ethyl-6-oxo-5,6-dihydro-1,5-naphthyridin-3-yl)methyl)-N-methyl-1,2,3,4,4a,5-hexahydro-7H-pyrazino[2,1-c]pyrido[3,2-e][1,4]oxazepine-9-carboxamide], for which the Purity % reads like this: (40° C., 30 days) 99.5%; (60° C., 5 days) 99.6%; (60° C., 10 days) 99.4%; (60° C., 30 days) 98.8%; (75% RH, 5 days) 99.7%; (75% RH, 10 days) 99.7%. Further, the Purity % by setting is: (75% RH, 30 days) 99.7%; (92.5% RH, 5 days) 99.7%; (92.5% RH, 10 days) 99.7%; (92.5% RH, 30 days) 99.7%; (light exposure (4500 Lux), 5 days) 99.7%; (light exposure (4500 Lux), 10 days) 99.2%. Where the note is “light exposure (4500 Lux), 30 days”, this molecule gave a Purity % of 98.4%.
